Measurements reported in ChEMBL document CHEMBL5537192, “Specific Inhibitors of Mitochondrial Deacylase Sirtuin 4 Endowed with Cellular Activity” (J Med Chem, 2024).

Experiments:
[1] = target: T1, NAD-dependent protein lipoamidase sirtuin-4, mitochondrial (Mus musculus) (UniProt Q8R216); conditions: C2C12, dose 20-50 nM, time 8.0 day
T1 sequence (whole entry): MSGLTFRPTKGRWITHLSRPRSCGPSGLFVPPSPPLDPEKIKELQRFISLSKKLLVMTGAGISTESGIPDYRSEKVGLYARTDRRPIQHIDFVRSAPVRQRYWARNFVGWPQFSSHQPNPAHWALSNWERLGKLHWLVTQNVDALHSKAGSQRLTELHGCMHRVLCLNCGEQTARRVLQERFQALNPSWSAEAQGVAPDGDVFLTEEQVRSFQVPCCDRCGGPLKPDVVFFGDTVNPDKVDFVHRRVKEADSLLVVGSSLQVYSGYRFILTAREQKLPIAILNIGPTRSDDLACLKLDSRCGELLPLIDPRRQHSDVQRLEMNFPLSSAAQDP

[2] = target: T1, NAD-dependent protein lipoamidase sirtuin-4, mitochondrial (Mus musculus); conditions: C2C12, dose 20-50 nM, time 4.0 hrs
[3] = target: T1, NAD-dependent protein lipoamidase sirtuin-4, mitochondrial (Mus musculus); conditions: C2C12, dose 10-50 mM, time 8.0 day
[4] = target: T1, NAD-dependent protein lipoamidase sirtuin-4, mitochondrial (Mus musculus); conditions: C2C12, dose 10-50 mM, time 4.0 hrs

Question: Which results are given for CC(/C=C/C(=O)NO)=C\[C@@H](C)C(=O)c1ccc(N(C)C)cc1?
Answer: inhibition [1]: inactive; inhibition [2]: inactive

Question: For NC(=O)c1cccnc1, which inhibition [3] is on record?
Answer: Its inhibition is “Active”.

Question: What about the inhibition [4] of the same molecule?
Answer: Its inhibition is “inactive”.

The source made the active and inactive calls. The calls are words filed in the database; no cut-off is given here.
